Source: ChEMBL document CHEMBL1129371, “Bis tertiary amide inhibitors of the HIV-1 protease generated via protein structure-based iterative design” (J Med Chem, 1996)

Molecular target: Human immunodeficiency virus type 1 protease (Human immunodeficiency virus 1, UniProt Q72874)
Test: Binding affinity against HIV-1 protease

Molecule `CC(C)(C)N(CCO)C(=O)c1ccccc1CCC(O)Cc1ccccc1C(=O)N(CCO)C(C)(C)C` (stereo unspecified) has a Ki of 1100 nM.
